US20230136717A1, “EPLIN AS A BIOMARKER FOR CANCER” (Turun yliopisto, priority 2020, published 2023)

System: HNSCC cell lines
Experiment: Sensitivity of HNSCC cell lines to EGFR-TKi after silencing EPLIN
Format: cell-based
Conditions: siRNA silencing of EPLIN; FIG. 6C

## COc1cc2ncnc(Nc3ccc(F)c(Cl)c3)c2cc1OCCCN1CCOCC1 [Gefitinib]
  sensitivity of HNSCC cells to the drug on silencing EPLIN expression: decreases sensitivity

## Cetuximab
  sensitivity of HNSCC cells to the drug on silencing EPLIN expression: decreases sensitivity
